According to ChEMBL document CHEMBL4145540, “Synthesis and biological evaluation of carbamates derived from aminocombretastatin A-4 as vascular disrupting agents” (Eur J Med Chem, 2018):

organism: Bos taurus; test: Inhibition of calf brain tubulin polymerization in glycerol-assembly buffer assessed as critical concentration for tubulin assembly at 27.5 uM measured every 30 secs for 2 hrs in presence of GTP

Compound	Activity
COc1ccc(/C=C\c2cc(OC)c(OC)c(OC)c2)cc1NC(=O)Oc1ccc(C)cc1	25 µM
COc1cccc(OC(=O)Nc2cc(/C=C\c3cc(OC)c(OC)c(OC)c3)ccc2OC)c1	20 µM
COc1ccc(/C=C\c2cc(OC)c(OC)c(OC)c2)cc1NC(=O)Oc1ccccc1C	22 µM
COc1ccc(/C=C\c2cc(OC)c(OC)c(OC)c2)cc1NC(=O)Oc1ccccc1Br	22 µM
COc1ccc(/C=C\c2cc(OC)c(OC)c(OC)c2)cc1NC(=O)Oc1ccc(C)c(Cl)c1	24 µM
COc1ccc(/C=C\c2cc(OC)c(OC)c(OC)c2)cc1NC(=O)Oc1cccc(Br)c1	25 µM
COc1ccc(/C=C\c2cc(OC)c(OC)c(OC)c2)cc1NC(=O)Oc1ccc(F)cc1	22 µM
COc1ccc(/C=C\c2cc(OC)c(OC)c(OC)c2)cc1NC(=O)Oc1c(C)cccc1C	17 µM
COc1ccc(/C=C\c2cc(OC)c(OC)c(OC)c2)cc1NC(=O)Oc1ccccc1	20 µM
COc1ccc(/C=C\c2cc(OC)c(OC)c(OC)c2)cc1NC(=O)Oc1ccc(Br)cc1	23 µM
COc1ccc(/C=C\c2cc(OC)c(OC)c(OC)c2)cc1NC(=O)Oc1ccc(Cl)c(C)c1	24 µM
COc1ccc(OC(=O)Nc2cc(/C=C\c3cc(OC)c(OC)c(OC)c3)ccc2OC)cc1	23 µM
COc1ccc(/C=C\c2cc(OC)c(OC)c(OC)c2)cc1NC(=O)Oc1cccc(C(F)(F)F)c1	14 µM
COc1ccc(/C=C\c2cc(OC)c(OC)c(OC)c2)cc1NC(=O)Oc1ccccc1Cl	21 µM
COc1ccc(/C=C\c2cc(OC)c(OC)c(OC)c2)cc1NC(=O)Oc1cccc(Cl)c1C	23 µM
COc1ccc(/C=C\c2cc(OC)c(OC)c(OC)c2)cc1N	23 µM
COc1ccc(/C=C\c2cc(OC)c(OC)c(OC)c2)cc1NC(=O)Oc1cccc(C)c1	20 µM
COc1ccc(/C=C\c2cc(OC)c(OC)c(OC)c2)cc1NC(=O)Oc1ccccc1OC	16 µM
COc1ccc(/C=C\c2cc(OC)c(OC)c(OC)c2)cc1NC(=O)Oc1ccc(Cl)cc1	24 µM
COc1ccc(/C=C\c2cc(OC)c(OC)c(OC)c2)cc1NC(=O)Oc1ccccc1C(F)(F)F	23 µM
COc1ccc(/C=C\c2cc(OC)c(OC)c(OC)c2)cc1NC(=O)Oc1cccc(C)c1C	25 µM
COc1ccc(/C=C\c2cc(OC)c(OC)c(OC)c2)cc1NC(=O)Oc1cc(C)cc(C)c1	24 µM
COc1ccc(/C=C\c2cc(OC)c(OC)c(OC)c2)cc1NC(=O)Oc1ccc(C(F)(F)F)cc1	20 µM
COc1ccc(/C=C\c2cc(OC)c(OC)c(OC)c2)cc1NC(=O)Oc1ccc(C)c(C)c1	21 µM
COc1ccc(/C=C\c2cc(OC)c(OC)c(OC)c2)cc1NC(=O)Oc1ccccc1F	18 µM
COc1ccc(/C=C\c2cc(OC)c(OC)c(OC)c2)cc1NC(=O)Oc1cccc(F)c1	24 µM
COc1ccc(/C=C\c2cc(OC)c(OC)c(OC)c2)cc1NC(=O)Oc1cccc(Cl)c1	23 µM

test system: A549; test: Cell cycle arrest in human A549 cells assessed as accumulation at G0/G1 phase at 750 nM after 20 hrs by propidium iodide staining based flow cytometry (reference value: 66 +/- 1%); assay type: functional

Compound	Activity
COc1ccc(/C=C\c2cc(OC)c(OC)c(OC)c2)cc1NC(=O)Oc1cc(C)cc(C)c1	24%

test system: A549; test: Cell cycle arrest in human A549 cells assessed as accumulation at S phase at 2000 nM after 20 hrs by propidium iodide staining based flow cytometry (reference value: 16 +/- 1%); assay type: functional

Compound	Activity
COc1ccc(/C=C\c2cc(OC)c(OC)c(OC)c2)cc1NC(=O)Oc1c(C)cccc1C	17%

test system: A549; test: Cell cycle arrest in human A549 cells assessed as accumulation at G0/G1 phase at 70 nM after 20 hrs by propidium iodide staining based flow cytometry (reference value: 66 +/- 1%); assay type: functional

Compound	Activity
COc1ccc(/C=C\c2cc(OC)c(OC)c(OC)c2)cc1NC(=O)Oc1ccc(Cl)c(C)c1	24%
